The test system of this assay is HuH7 cells, BMP response element (BRE) luciferase reporter, BMP6 stimulated. Put plainly: BMP signaling reporter gene assay. It counts as cell-based. To be noted: Homo sapiens, Huh-7; BMP6 100 ng/ml; read-out: MSD HuH7 cell BMP reporter IC50.

The structures appear in SMILES notation.

In the case of `CC(C)n1cc(-c2cncc(-c3ccc4c(c3)NC(=O)C4(C)C)c2)ccc1=O` [Example 32, 6-(1′-isopropyl-6′-oxo-1′,6′-dihydro-[3,3′-bipyridin]-5-yl)-3,3-dimethylindolin-2-one], the IC50 was 0.07 µM.
